Measured values: patent publication US10604514B2, “6-(5-membered heteroaryl)isoquinolin-3-yl carboxamides and preparation and use thereof” (Samumed, LLC, priority 2017, dated 2020)

Sequences of proteins named here, by UniProt entry; tags and fusion partners are left off. A change or cut given only in a name is not applied to a line headed by its entry.
UniProt P49841: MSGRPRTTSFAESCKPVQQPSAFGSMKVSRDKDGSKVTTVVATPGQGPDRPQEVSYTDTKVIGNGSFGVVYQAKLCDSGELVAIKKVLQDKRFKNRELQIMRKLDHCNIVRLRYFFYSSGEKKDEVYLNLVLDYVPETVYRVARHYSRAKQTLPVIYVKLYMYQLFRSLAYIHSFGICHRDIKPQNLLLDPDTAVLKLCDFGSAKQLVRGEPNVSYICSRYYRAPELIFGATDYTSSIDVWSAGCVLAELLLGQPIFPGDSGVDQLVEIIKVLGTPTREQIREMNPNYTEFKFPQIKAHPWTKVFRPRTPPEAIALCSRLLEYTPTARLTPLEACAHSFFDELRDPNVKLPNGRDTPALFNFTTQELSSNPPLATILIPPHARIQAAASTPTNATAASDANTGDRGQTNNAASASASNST

Target: GSK3β kinase (Homo sapiens (Human), UniProt P49841)
Experiment: GSK3β kinase assay (Ser/Thr 09 peptide Z-lyte, FRET);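 also: Coumarin/fluorescein emission ratio converted to percent phosphorylation against unphosphorylated (0%) and phosphorylated (100%) controls, 1 h compound incubation at room temperature, 11-point threefold dilutions from 10 µM, run in duplicate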
Assay type: biochemical
Conditions: method text calls the value IC50

In the case of [2H]c1c(NC(=O)C2CCN(CC(C)C)CC2)ncc2ccc(-c3cnn(C)c3)cc12 [Compound 6, 1-Isobutyl-N-(6-(1-methyl-1H-pyrazol-4-yl)isoquinolin-3-yl-4-d)piperidine-4-carboxamide], the EC50 is reported as 51 nM.
